## Measured affinities in a library of Ab-95 light chain variants

Source: Engelhart et al. 2022 (doi:10.1038/s41597-022-01779-4), MIT Lincoln Laboratory and A-Alpha Bio; data file from the FLAb repository.

All variants were tested on one target, the spike HR2 peptide PDVDLGDISGINAS (SARS-CoV-2).

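Phage display of a naive human antibody library on the peptide gave the parent. Variants in AAYL52 differ from the parent at up to three CDR positions; double and triple changes were sampled at random. The assay is AlphaSeq: two haploid yeast populations carry antibody and antigen on their surface. Binding brings cells together so that they mate, and sequencing counts the barcode pairs among the diploids. Each replicate has its own calibration line, from reference interactions of the BCL2 family. Each pool was mated in three replicate cultures.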

Parent: Ab-95, a human scFv built as VH, the linker GGGGSGGGGSGGGGS, VL. Only the CDRs of the light chain vary.
VH: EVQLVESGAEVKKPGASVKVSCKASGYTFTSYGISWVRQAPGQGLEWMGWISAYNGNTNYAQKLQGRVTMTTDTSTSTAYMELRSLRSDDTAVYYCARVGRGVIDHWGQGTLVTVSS
VL: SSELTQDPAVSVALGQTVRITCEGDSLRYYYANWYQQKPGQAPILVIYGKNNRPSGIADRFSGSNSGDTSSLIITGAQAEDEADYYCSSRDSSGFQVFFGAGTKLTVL

Each variant is given by its three light chain CDRs, as the data file delimits them; those of the parent are EGDSLRYYYAN, GKNNRPS, SSRDSSGFQVF.
Every variant below is changed at R28 of the VL (sequential numbering).
The read-out is the apparent dissociation constant on a log10 scale (nM): the lower, the stronger.
An entry "nd" has no value in the source: the pair was not observed among the diploids in that replicate. This suggests poor binding but is not conclusive.

The variant EGDSLGYYYAN / GKNNRPS / SSRGSSGFQVF showed 2.62, 2.77, 2.77.
The variant AGDSLTYYYAN / GKNNRPS / SSRDSSGFQVF showed 2.29, 2.16, 2.11.
The variant EADSLAYYYAN / GKNNWPS / SSRDSSGFQVF showed 3.64, 3.47, nd.
The variant EGDSLIYYYAN / AKNNRPS / DSRDSSGFQVF showed 4.48, nd, nd.
The variant EDDSLMYYYAN / GKNNRPS / SSRDSSGFRVF showed nd, nd, nd.
The variant EGDSLNYYYDN / GKNNRPS / SVRDSSGFQVF showed 3.16, 5.49, 4.06.
The variant EGDSLVYYYAN / GKNNRPG / SSRDSSGFQVF showed nd, nd, nd.
The variant EGDSLTYYPAN / GKNNRPS / SSRDESGFQVF showed 1.84, 1.65, 1.74.
The variant EGDSLTYIYDN / GKNNRPS / SSRDSSGFQVF showed 5.26, nd, nd.
The variant EGDSNVYYYAN / GKNLRPS / SSRDSSGFQVF showed 2.24, 2.40, 1.28.
The variant EGDSLWYYYAN / GKNNRPS / SSRDSSGFFVA showed 4.60, nd, 3.67.
The variant EGDSLEYYYAN / GDNNRPS / SSRWSSGFQVF showed nd, 4.75, nd.
The variant EGDSTHYYYAN / GKYNRPS / SSRDSSGFQVF showed nd, nd, 3.13.
The variant GGDSLIYYYAN / GLNNRPS / SSRDSSGFQVF showed 2.66, 2.76, 2.53.
The variant EGDSLPYYYAN / GKNMRDS / SSRDSSGFQVF showed nd, nd, nd.
The variant EGPSMNYYYAN / GKNNRPS / SSRDSSGFQVF showed 2.36, 2.34, 2.27.
The variant EGDSLQYYYAN / GKNNRPN / DSRDSSGFQVF showed 3.17, 2.59, 1.83.
The variant EGDSLTVLYAN / GKNNRPS / SSRDSSGFQVF showed 4.48, 4.23, 3.64.
The variant EGDSLIYYYNN / GKNNRPS / SSRDSSGFQVK showed nd, nd, nd.
The variant EGDSLSYYYAN / GKNNRPS / SSRDSQGFQVF showed 2.85, 2.64, 2.87.
The variant EGDSLLYYYAN / GKFNRPS / SSRDSSGNQVF showed 3.88, 5.10, 3.04.
The variant EGDSTLYYYAN / DKNNRPS / SSRDSSGFQVF showed 4.35, nd, nd.
The variant EGDSLYYYYAN / GKNNRPF / SSRDSSGFQFF showed 2.82, 2.80, 2.28.
The variant EGDSLCYYYAN / GENNRPS / SSRDSSSFQVF showed 3.70, 2.71, 3.73.
The variant EGDSLPYYYAN / GKNNRPS / SSRDSWVFQVF showed 2.81, 2.74, 2.49.
The variant EGDSLHYYYAR / GKNNRPS / SSYDSSGFQVF showed nd, 3.97, nd.
The variant EGDSLIYYYAN / GKNNRPS / SSNDSSGFQRF showed 3.68, nd, 3.00.
The variant EGDSLTYFYAN / GKNNRPS / SSRPSSGFQVF showed 3.70, 2.80, 3.10.
The variant EGDSLWYYYAN / GKNNYPS / SSRDYSGFQVF showed nd, 4.45, nd.
The variant EGDSLEYYKAN / GKNNRPS / SSRDSSLFQVF showed 3.20, nd, nd.
The variant ERDSLGYYYAH / GKNNRPS / SSRDSSGFQVF showed 3.09, 3.65, 2.51.
The variant EGDSLWYSYYN / GKNNRPS / SSRDSSGFQVF showed nd, nd, nd.
The variant EGDSLHYYYAN / GKNYRPS / SSRDSSGFQVF showed 2.60, 2.32, 2.46.
The variant EGDSEIYYYAN / GKNNRPS / SSRDSSEFQVF showed 3.21, 3.42, 4.42.
The variant EGDSLTMYYAN / GKNCRPS / SSRDSSGFQVF showed 2.75, 4.24, 4.63.
The variant QGDSLWYYYAN / GKNNRPS / SSRCSSGFQVF showed 4.22, 2.88, 3.09.
The variant EGDSLHWYYAN / GWNNRPS / SSRDSSGFQVF showed 4.53, 5.63, 4.35.
The variant EGDSLKYYYAN / GKNNRRS / SSRDSEGFQVF showed 3.96, 3.42, nd.
The variant EGDSLQYYYAF / GTNNRPS / SSRDSSGFQVF showed 3.43, nd, 4.04.
The variant EGDSLFYYYAN / GKNNRPK / SSRDSSGDQVF showed nd, 4.52, nd.
The variant EGDSLKYYVAN / GKNNRPS / SSRDPSGFQVF showed 2.30, 2.47, 2.56.
The variant EGDSLMYYYAN / GKNNRPS / SSRDSSGFQVM showed 3.51, 3.45, 3.40.
The variant EGDSLCYYYAN / GKNNRPS / SSRDSSLFQMF showed nd, nd, nd.
The variant EGDSLVYYYSN / GKNNRPS / SSRDSSGFQVT showed 5.75, 4.07, 3.91.
The variant EGDSLCYYYAN / GKTNRPS / SSRDSSGFQVV showed 3.08, nd, nd.
The variant EGDSLNYYYAN / GRNNRPS / SWRDSSGFQVF showed nd, nd, nd.

Picked from the list: the 6 lowest averages where every replicate gave a value.

CDR-L1,CDR-L2,CDR-L3,"log10 Kd, replicates"
EGDSLTYYPAN,GKNNRPS,SSRDESGFQVF,"1.84, 1.65, 1.74"
EGDSNVYYYAN,GKNLRPS,SSRDSSGFQVF,"2.24, 2.40, 1.28"
AGDSLTYYYAN,GKNNRPS,SSRDSSGFQVF,"2.29, 2.16, 2.11"
EGPSMNYYYAN,GKNNRPS,SSRDSSGFQVF,"2.36, 2.34, 2.27"
EGDSLKYYVAN,GKNNRPS,SSRDPSGFQVF,"2.30, 2.47, 2.56"
EGDSLHYYYAN,GKNYRPS,SSRDSSGFQVF,"2.60, 2.32, 2.46"

Empty control strains, which show no peptide, gave a signal in 28% of pairings with library AAYL52; the median was 3.91 and 95% of these signals were weaker than 2.90. No background was subtracted.
In this assay the parent's reference entry averaged 2.31; its copy inside this library read 2.25.